Earlier results as cited in PMC11859092 (Pharmaceutics, 2025).

Settings: in some cases; cited from earlier work

## O=C1Nc2ccc(Cl)cc2[C@@](C#CC2CC2)(C(F)(F)F)O1 [EFV, Efavirenz]
  plasma concentrations, highest reached: ≤ 25300 ng/mL
